Columns and labels:
[1] = tested on: wildtype and Fgf14^N-βGal/N-βGal mice; assay: Locomotor activity response to stimulant drugs and dopamine receptor agonists; assay type: in vivo, mouse; settings: 0.5 mg/kg
Method: Locomotor activity. For the locomotor activity experiments, all mice were acclimated to the activity cages (28 cm long×17 cm wide×12.5 cm high) for one hour on two consecutive days. […] Mice were tested every other day and the order of drug treatment was counterbalanced across days within genotype groups. Locomotor activity was recorded every five minutes by two beams of red light placed at 10 and 19 cm along the length of the activity cage.
Statistical Analyses. The behavioral data were analyzed using analysis of variance (ANOVA) models typically containing one between-subjects variable (Genotype) and one within-subjects variable (e.g., Trials or Test Sessions). Subsequent one-way ANOVAs were used to evaluate main effects. Data from the experiments concerning drug effects on locomotor activity were analyzed by using a […] analysis of variance (ANOVA) with one between-subjects variable (Drug) being added to the above model. […] Alpha was set at p<0.05 for all analyses.

mice = settings: mouse, in vivo; cited from earlier work

CCCN1CCC[C@@H]2Cc3n[nH]cc3C[C@H]21 [quinpirole]
decrease in locomotor activity [1]: 4.5 fold
effect on locomotor activity (mice): dose dependent decrease

From patent publication US20030037354A1, “Animal model with disrupted Fgf14 gene” (priority 2001, published 2003)
